Literature values, collected in patent US20240010634A1, “PYRIMIDINYL SULFONAMIDES AS INHIBITORS OF ACK1/TNK2 TYROSINE KINASE” (H. LEE MOFFITT CANCER CENTER AND RESEARCH INSTITUTE, INC., priority 2020, published 2024).

Chains of the proteins cited; added tags and fusions are not shown.
UniProt Q07912, whole entry: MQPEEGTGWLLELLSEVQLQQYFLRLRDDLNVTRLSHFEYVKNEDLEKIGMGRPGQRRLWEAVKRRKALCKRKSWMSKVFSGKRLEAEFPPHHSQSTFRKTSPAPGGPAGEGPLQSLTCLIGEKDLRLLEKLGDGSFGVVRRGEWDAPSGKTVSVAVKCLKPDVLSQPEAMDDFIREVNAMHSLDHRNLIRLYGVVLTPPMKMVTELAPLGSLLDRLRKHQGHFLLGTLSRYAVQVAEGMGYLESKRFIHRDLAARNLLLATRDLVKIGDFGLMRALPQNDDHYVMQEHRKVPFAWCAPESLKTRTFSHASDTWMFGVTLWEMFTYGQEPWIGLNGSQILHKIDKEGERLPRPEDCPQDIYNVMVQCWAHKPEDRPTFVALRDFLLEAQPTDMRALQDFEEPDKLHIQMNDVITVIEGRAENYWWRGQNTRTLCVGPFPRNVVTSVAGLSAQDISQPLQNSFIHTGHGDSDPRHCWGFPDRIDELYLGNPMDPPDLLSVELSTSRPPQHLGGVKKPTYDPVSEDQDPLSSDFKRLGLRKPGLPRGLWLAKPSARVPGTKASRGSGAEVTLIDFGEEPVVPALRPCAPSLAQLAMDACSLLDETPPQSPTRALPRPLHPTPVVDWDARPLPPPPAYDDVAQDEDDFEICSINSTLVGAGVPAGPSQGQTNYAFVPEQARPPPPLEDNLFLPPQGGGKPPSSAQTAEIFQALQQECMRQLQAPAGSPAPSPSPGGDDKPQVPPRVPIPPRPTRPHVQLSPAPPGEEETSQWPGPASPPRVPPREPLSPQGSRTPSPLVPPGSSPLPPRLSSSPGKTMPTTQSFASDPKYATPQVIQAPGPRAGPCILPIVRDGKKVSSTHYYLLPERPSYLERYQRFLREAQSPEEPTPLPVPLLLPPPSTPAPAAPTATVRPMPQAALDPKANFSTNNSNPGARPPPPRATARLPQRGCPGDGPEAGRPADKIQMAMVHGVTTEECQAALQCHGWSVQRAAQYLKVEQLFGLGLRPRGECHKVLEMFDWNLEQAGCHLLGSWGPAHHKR

Columns and labels:
[1] = molecular target: ACK1 (Homo sapiens (Human), UniProt Q07912); settings: read-out: ACK1 IC50 in vitro; cited from earlier work
[2] = tested on: ACK1 autophosphorylation; settings: read-out: IC50, inhibition of ACK1 autophosphorylation in intact cells; cited from earlier work

## COC(C)(C)CCn1nc(Nc2c(C)cccc2C)c2cnc(Nc3ccccc3)nc21
[1]
  IC50: 0.002 µM
[2]
  IC50: 0.02 µM
